From ChEMBL document CHEMBL1143267, “Type II NADH dehydrogenase of the respiratory chain of Plasmodium falciparum and its inhibitors” (Bioorg Med Chem Lett, 2009)

Legend:
[1] = target: T1, Dihydroorotate dehydrogenase (fumarate) (Saccharomyces cerevisiae S288c, UniProt P28272); experiment: Inhibition of Saccharomyces cerevisiae DHOD
T1 sequence (P28272 whole entry): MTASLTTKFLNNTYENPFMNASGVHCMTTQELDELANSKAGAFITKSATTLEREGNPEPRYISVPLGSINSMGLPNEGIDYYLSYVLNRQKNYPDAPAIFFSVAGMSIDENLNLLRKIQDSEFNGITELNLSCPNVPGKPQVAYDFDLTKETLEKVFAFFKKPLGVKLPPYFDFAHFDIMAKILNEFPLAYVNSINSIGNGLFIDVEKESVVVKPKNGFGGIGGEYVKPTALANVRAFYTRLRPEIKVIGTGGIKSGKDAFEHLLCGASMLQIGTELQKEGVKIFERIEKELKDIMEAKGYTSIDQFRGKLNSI
Method in brief: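 Yeast cytoplasmic type I DHOD, assayed DCIP-coupled with 500 µM L-dihydroorotate and 115 µM fumarate as acceptor. Compounds tested up to 10 µM. IC50 from three independent experiments.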

Plasmodium falciparum [2] = experiment: Antimalarial activity against Plasmodium falciparum DD2 by [3H]hypoxanthine uptake; type: functional, organism-based
Method in brief: (§1)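 Asexual parasite proliferation measured by [3H]-hypoxanthine incorporation dose–effect curves, in parental DD2 and a transgenic DD2 line expressing yeast cytoplasmic DHOD. IC50 from three independent experiments. Antimycin A, a mixture of A1–A4, expressed in mg/mL.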

Plasmodium falciparum [3] = experiment: Antimalarial activity against Plasmodium falciparum DD2 expressing Saccharomyces cerevisiae DHOD by [3H]hypoxanthine uptake; type: functional, organism-based; method in brief: as §1

**Q.** Which IC50 [1] does the source give for `c1ccc2c(c1)[I+]c1ccccc1-2` [DIPHENYLENEIODONIUM CHLORIDE] here?
**A.** > 10000 nM

**Q.** And the IC50 (Plasmodium falciparum [2])?
**A.** 2700 nM

**Q.** And the IC50 (Plasmodium falciparum [3])?
**A.** 3000 nM
